# Experimental data taken from patent EP4847505A1, “4-METHYLSULFONYL-SUBSTITUTED PIPERIDINE UREA COMPOUNDS” (dated 2026).
# By UniProt entry, the sequences of proteins in these tests, tags left out.
# UniProt Q9BE39, whole entry: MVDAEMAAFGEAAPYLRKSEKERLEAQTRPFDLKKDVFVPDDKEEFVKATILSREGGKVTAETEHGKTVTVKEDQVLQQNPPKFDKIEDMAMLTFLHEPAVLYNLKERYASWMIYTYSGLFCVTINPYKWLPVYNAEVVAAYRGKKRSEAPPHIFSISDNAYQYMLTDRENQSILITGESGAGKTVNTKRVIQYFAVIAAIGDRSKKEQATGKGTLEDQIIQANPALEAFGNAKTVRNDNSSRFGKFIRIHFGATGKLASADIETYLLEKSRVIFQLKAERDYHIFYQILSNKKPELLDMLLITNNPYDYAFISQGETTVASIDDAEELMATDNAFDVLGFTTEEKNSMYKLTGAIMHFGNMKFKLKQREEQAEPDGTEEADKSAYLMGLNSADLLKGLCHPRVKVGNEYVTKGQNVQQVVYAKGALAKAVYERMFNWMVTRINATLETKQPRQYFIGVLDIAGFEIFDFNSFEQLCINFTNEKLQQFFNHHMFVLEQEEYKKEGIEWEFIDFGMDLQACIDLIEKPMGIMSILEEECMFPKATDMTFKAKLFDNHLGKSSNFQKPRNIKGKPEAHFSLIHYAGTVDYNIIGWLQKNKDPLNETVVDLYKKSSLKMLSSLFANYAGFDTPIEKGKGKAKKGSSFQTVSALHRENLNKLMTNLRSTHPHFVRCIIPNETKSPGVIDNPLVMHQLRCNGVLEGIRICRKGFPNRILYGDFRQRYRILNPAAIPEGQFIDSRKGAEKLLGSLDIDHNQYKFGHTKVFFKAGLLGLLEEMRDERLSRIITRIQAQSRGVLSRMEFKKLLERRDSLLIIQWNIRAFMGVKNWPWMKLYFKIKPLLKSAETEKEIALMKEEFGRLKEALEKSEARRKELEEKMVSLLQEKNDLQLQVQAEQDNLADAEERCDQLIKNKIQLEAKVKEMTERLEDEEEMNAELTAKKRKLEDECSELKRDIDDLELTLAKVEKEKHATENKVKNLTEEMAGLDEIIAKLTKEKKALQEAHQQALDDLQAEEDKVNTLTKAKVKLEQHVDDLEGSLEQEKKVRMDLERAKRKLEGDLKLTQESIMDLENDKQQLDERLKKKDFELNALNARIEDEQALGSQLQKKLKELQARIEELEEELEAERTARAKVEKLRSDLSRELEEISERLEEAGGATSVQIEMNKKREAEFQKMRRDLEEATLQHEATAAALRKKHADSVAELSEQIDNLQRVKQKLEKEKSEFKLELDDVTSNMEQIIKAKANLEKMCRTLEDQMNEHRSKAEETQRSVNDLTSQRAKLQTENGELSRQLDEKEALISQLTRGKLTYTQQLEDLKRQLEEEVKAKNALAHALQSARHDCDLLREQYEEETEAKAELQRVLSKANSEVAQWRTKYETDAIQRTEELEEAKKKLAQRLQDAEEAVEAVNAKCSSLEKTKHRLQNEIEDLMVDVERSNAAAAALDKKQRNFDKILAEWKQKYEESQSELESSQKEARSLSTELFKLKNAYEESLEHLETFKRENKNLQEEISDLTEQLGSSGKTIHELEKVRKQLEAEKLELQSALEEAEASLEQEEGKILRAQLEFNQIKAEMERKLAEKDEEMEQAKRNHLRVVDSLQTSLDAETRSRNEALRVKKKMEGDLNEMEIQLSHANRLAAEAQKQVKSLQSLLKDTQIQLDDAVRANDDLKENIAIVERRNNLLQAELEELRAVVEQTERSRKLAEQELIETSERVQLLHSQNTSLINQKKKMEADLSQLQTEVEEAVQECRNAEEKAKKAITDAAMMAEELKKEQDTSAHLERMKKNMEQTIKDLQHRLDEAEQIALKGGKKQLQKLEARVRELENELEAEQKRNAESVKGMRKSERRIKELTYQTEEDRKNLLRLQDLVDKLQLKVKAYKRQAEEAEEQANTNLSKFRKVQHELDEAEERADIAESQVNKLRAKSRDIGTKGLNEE
# UniProt Q3SZE5, whole entry partner: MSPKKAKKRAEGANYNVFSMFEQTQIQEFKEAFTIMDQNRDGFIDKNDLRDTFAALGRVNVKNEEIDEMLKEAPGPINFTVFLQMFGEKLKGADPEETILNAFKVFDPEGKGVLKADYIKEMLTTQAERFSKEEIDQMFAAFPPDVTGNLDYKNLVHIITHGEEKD
# UniProt P85100, whole entry partner: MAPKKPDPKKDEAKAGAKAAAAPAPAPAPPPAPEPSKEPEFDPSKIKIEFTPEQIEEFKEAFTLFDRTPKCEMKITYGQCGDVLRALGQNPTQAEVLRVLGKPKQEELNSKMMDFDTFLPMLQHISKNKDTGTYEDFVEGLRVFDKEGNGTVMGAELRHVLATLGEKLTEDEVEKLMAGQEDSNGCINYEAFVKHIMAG
# Target: bovine cardiac myosin (Bos taurus, UniProt Q9BE39)
# Assay: Myosin activation assay (PK/LDH-coupled ATPase, bovine cardiac myofibrils)
# Conditions: concentration at which the total response is increased by twenty percent
# Procedure: Small molecule agents were assessed for their ability to activate the enzymatic activity of bovine cardiac myosin using a biochemical assay that couples the release of ADP (adenosine diphosphate) from cardiac myosin to an enzymatic coupling system consisting of pyruvate kinase and lactate dehydrogenase (PK/LDH) and monitoring the absorbance decrease of NADH (at 340 nm) as a function of time. PK converts ADP to ATP (adenosine triphosphate) by converting PEP (phosphoenolpyruvate) to pyruvate. Pyruvate is then converted to lactate by LDH by converting NADH (nicotinamide adenine dinucleotide) to NAD (oxidized nicotinamide adenine dinucleotide). The source of cardiac myosin was from bovine heart in the form of skinned myofibrils. Prior to testing small molecule agents, the bovine myofibrils were assessed for their calcium responsiveness and the calcium concentration that achieves either a 50% (pCa50 or pCa = ~ 6) or < 5% (pCa = 10) activation of the myofibril system was chosen as the final condition for assessing the activation activity of the small molecule agents. All enzymatic activity was measured in a buffered solution containing 12 mM PIPES (piperazine-N,N'-bis(2-ethanesulfonic acid), 2 mM magnesium chloride at pH 6.8 (PM12 buffer). Final assay conditions were 1 mg/mL of bovine cardiac myofibrils, 0.4 mM PK/LDH, 50 uM ATP, 0.1 mg/mL BSA (bovine serum albumin), 10 ppm antifoam, 2 mM BME, 0.5 mM NADH, 1.5 mM PEP at the desired free calcium concentration required to achieve either 50% or < 5% activation of the myofibrils.
# A dilution series of compound was created in DMSO such that the final desired concentration of compound would be achieved in a volume of 100 µL with a fixed DMSO concentration of 3.3% (v/v). Typically a 1 µL of the dilution series was added to a 384 well plate to achieve a 10 point dose response. Following the addition of 14 µL of a solution containing bovine cardiac myofibrils, PK/LDH and a solution of calcium (that achieved the desired activation), the enzymatic reaction was started with the addition of 15 µL of a solution containing ATP, PEP and NADH. The reaction progress was followed in a PerkinElmer Envision plate reader at ambient temperature using clear bottom plates. The plate reader was configured to read absorbance at 340 nm in kinetics mode for 15 minutes. Data were recorded as the slope of the absorbance response to time. The slopes of the absorbance response as a function of time were normalized to slopes on the plate containing DMSO. This normalized rate was then plotted as a function of small molecule concentration and the data was fitted to a four-parameter fit using EXCEL XLfit. The concentration at which the total response is increased by twenty or fifty percent is reported as AC20 or AC50. […] Table 2. Myosin Activation of Selected Compoundsa
row,Structure (SMILES),Myosin Activation (AC20)
1,Cn1cc(S(=O)(=O)C(C)(F)C2CCN(C(=O)Nc3ccnnc3)CC2)c(C(F)(F)F)n1 (centres unmarked),++ (++ represents myosin activation value AC20 from 2 µM - 5 µM)
2,COc1ccc(S(=O)(=O)C(C)(F)C2CCN(C(=O)Nc3ccnnc3)CC2)cn1 (centres unmarked),+++ (+++ represents myosin activation value AC20 < 2 µM)
3,N#Cc1ccc(S(=O)(=O)C2(C3CCN(C(=O)Nc4ccnnc4)CC3)CCC2)cc1,+++ (+++ represents myosin activation value AC20 < 2 µM)
4,Cn1cc(S(=O)(=O)C(F)(F)C2CCN(C(=O)Nc3ccnnc3)CC2)c(C(F)F)n1,++ (++ represents myosin activation value AC20 from 2 µM - 5 µM)
5,Cn1nc(C(F)(F)F)cc1S(=O)(=O)C(C)(C)C1CCN(C(=O)Nc2ccc(F)nc2)CC1,++ (++ represents myosin activation value AC20 from 2 µM - 5 µM)
6,CC(F)(C1CCN(C(=O)Nc2ccnnc2)CC1)S(=O)(=O)c1ccc(C(F)(F)F)cc1 (centres unmarked),++ (++ represents myosin activation value AC20 from 2 µM - 5 µM)
7,CC(F)(C1CCN(C(=O)Nc2ccnnc2)CC1)S(=O)(=O)c1cccc(F)c1.O=C(O)C(F)(F)F (centres unmarked),++ (++ represents myosin activation value AC20 from 2 µM - 5 µM)
8,CC(F)(C1CCN(C(=O)Nc2ccon2)CC1)S(=O)(=O)c1ccc(C(F)(F)F)cc1 (centres unmarked),+++ (+++ represents myosin activation value AC20 < 2 µM)
9,N#Cc1ccccc1S(=O)(=O)C(F)(F)C1CCN(C(=O)Nc2ccnnc2)CC1,++ (++ represents myosin activation value AC20 from 2 µM - 5 µM)
10,CC(C)(C1CCN(C(=O)Nc2ccon2)CC1)S(=O)(=O)c1cccc(F)c1,+ (+ represents myosin activation value AC20 > 5 µM)
11,Cn1nccc1S(=O)(=O)C(C)(C)C1CCN(C(=O)Nc2ccon2)CC1,++ (++ represents myosin activation value AC20 from 2 µM - 5 µM)
12,Cn1nc(C(F)(F)F)cc1S(=O)(=O)[C@](C)(F)C1CCN(C(=O)Nc2ccon2)CC1,+ (+ represents myosin activation value AC20 > 5 µM)
13,Cn1nc(Cl)cc1S(=O)(=O)C(C)(C)C1CCN(C(=O)Nc2ccon2)CC1,+++ (+++ represents myosin activation value AC20 < 2 µM)
14,O=C(Nc1ccnnc1)N1CCC(C(F)(F)S(=O)(=O)c2ccccc2CO)CC1,++ (++ represents myosin activation value AC20 from 2 µM - 5 µM)
15,Cn1cc(S(=O)(=O)[C@@](C)(F)C2CCN(C(=O)Nc3ccc(C(N)=O)nc3)CC2)c(C(F)F)n1,++ (++ represents myosin activation value AC20 from 2 µM - 5 µM)
16,CC(F)(C1CCN(C(=O)Nc2ccnnc2)CC1)S(=O)(=O)c1ccccc1C(F)(F)F (centres unmarked),++ (++ represents myosin activation value AC20 from 2 µM - 5 µM)
17,COc1ccccc1S(=O)(=O)C(C)(C)C1CCN(C(=O)Nc2ccncc2)CC1,+++ (+++ represents myosin activation value AC20 < 2 µM)
18,Cc1ccc(NC(=O)N2CCC(C(C)(F)S(=O)(=O)c3cc(C(F)(F)F)nn3C)CC2)cn1 (centres unmarked),++ (++ represents myosin activation value AC20 from 2 µM - 5 µM)
19,CN(C(=O)N1CCC(C(C)(C)S(=O)(=O)c2cccc(F)c2)CC1)c1ccncc1,+ (+ represents myosin activation value AC20 > 5 µM)
20,Cn1nccc1S(=O)(=O)C(C)(F)C1CCN(C(=O)Nc2ccc(F)nc2)CC1 (centres unmarked),++ (++ represents myosin activation value AC20 from 2 µM - 5 µM)
21,CC(C)(C1CCN(C(=O)Nc2ccc(Cl)nc2)CC1)S(=O)(=O)c1cccc(F)c1,++ (++ represents myosin activation value AC20 from 2 µM - 5 µM)
22,Cn1nc(C(F)F)cc1S(=O)(=O)C(C)(F)C1CCN(C(=O)Nc2ccon2)CC1 (centres unmarked),+++ (+++ represents myosin activation value AC20 < 2 µM)
23,Cn1cc(S(=O)(=O)C(C)(C)C2CCN(C(=O)Nc3ccnnc3)CC2)c(C(F)F)n1,+++ (+++ represents myosin activation value AC20 < 2 µM)
